Molecular target: DQA10501-DQB10301 (Homo sapiens, UniProt P01909+P01920)
Assay: Competitive MHC class II binding assay, DQA10501-DQB10301

Protein sequences, listed by entry. Tags and fused reporters are not part of them. Residues count along the entry.
UniProt P01920, 33-261: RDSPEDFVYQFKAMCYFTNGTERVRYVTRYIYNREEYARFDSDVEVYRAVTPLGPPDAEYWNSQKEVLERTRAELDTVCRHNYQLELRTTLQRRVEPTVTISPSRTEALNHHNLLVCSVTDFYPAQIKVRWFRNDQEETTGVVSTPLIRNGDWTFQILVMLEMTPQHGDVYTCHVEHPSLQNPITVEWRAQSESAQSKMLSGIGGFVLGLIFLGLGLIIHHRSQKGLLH

## CC[C@H](C)[C@H](NC(=O)CNC(=O)[C@@H](N)CCCNC(=N)N)C(=O)N[C@@H](CCC(=O)O)C(=O)N[C@@H](Cc1ccc(O)cc1)C(=O)N[C@H](C(=O)N[C@@H](CCC(N)=O)C(=O)N[C@@H](Cc1c[nH]cn1)C(=O)N[C@@H](CC(N)=O)C(=O)NCC(=O)N[C@H](C(=O)N[C@H](C(=O)N[C@@H](CCC(N)=O)C(=O)N[C@@H](CCC(=O)O)C(=O)N[C@@H](CO)C(=O)O)C(C)C)C(C)C)[C@@H](C)CC [pep-025]
  IC50: < 1000 nM

Source: patent publication US20160251403A1, “PEPTIDE COMBINATIONS AND USES THEREOF IN TREATING DUST MITE ALLERGY” (ALK-ABELLO A/S, priority 2013, published 2016)
